Data on three compounds can be found in US20090304692A1, “TRIAZINE COMPOUNDS AS PI3 KINASE AND MTOR INHIBITORS” (Wyeth, priority 2008, published 2009).

The chains behind the UniProt entries cited, without tags or fusion partners.
UniProt P48736, whole entry, species assumed: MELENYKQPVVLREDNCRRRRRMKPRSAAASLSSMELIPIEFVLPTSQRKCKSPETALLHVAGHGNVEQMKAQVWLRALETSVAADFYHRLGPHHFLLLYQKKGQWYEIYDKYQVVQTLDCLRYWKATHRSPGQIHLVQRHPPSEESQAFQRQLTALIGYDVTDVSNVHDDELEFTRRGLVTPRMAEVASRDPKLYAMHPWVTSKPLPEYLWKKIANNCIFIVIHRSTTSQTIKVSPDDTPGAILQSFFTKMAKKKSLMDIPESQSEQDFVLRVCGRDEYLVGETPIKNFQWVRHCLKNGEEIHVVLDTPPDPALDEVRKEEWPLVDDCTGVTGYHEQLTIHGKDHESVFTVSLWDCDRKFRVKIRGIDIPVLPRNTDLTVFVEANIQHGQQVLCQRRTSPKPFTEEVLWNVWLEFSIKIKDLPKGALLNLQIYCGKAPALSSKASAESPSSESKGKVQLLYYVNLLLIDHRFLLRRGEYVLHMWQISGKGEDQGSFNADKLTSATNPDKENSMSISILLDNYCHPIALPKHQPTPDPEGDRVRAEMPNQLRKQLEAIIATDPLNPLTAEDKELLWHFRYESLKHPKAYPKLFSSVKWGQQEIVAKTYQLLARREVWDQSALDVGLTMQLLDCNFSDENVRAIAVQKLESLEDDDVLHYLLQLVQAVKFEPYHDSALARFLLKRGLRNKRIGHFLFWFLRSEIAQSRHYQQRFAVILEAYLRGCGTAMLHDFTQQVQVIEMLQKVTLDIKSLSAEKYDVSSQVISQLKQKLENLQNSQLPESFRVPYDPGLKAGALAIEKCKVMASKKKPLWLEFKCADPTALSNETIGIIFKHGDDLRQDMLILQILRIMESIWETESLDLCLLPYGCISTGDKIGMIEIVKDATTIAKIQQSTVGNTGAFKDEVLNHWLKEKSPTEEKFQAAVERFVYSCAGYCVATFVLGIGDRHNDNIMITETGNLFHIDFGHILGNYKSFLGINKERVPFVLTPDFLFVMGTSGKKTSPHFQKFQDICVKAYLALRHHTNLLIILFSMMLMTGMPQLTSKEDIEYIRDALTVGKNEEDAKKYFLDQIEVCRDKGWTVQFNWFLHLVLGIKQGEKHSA
UniProt P42336, whole entry, species assumed: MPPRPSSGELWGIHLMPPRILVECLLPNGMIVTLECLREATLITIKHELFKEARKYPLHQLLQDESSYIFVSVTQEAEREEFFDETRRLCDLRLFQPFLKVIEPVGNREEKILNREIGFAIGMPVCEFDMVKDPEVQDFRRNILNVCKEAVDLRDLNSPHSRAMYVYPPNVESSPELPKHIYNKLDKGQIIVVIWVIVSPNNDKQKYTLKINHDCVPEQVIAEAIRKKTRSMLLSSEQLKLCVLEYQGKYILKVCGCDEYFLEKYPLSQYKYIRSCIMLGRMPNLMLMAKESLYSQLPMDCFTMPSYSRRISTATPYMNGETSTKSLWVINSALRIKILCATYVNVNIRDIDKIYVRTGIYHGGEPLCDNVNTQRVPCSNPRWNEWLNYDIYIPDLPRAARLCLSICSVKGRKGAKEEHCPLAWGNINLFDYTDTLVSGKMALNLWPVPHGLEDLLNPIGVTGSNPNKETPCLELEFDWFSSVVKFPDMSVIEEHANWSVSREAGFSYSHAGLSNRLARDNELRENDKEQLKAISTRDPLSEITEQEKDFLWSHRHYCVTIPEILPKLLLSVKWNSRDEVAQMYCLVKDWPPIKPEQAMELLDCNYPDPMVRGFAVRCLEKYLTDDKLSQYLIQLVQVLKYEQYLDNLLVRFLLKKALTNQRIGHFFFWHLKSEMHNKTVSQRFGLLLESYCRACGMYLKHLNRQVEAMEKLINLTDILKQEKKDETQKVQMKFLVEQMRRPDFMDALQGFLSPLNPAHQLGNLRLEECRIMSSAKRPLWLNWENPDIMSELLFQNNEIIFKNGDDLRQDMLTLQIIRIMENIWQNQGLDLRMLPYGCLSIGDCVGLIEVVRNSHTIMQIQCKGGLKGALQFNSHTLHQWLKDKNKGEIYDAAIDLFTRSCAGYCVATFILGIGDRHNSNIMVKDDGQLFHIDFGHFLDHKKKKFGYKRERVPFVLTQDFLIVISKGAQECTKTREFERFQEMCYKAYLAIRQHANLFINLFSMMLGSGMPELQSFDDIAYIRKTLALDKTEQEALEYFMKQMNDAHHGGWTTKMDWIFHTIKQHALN

One assay deals with Human mTOR (FLAG-TOR) (Homo sapiens, UniProt P42345). The assay is described as follows: mTOR kinase assay (DELFIA format, purified enzyme). It counts as biochemical.
The target in a further assay is PI3K-γ (Homo sapiens, UniProt P48736). The assay is described as follows: PI3K-gamma fluorescence polarization assay. As to conditions: read-out: IC50 PI3Kγ. A general note: Fluorescence polarisation rises when a labelled molecule tumbles more slowly, as on binding a larger partner.
The test system of assay [1] is human breast MDA-MB-361 tumor cell line. The assay is described as follows: In vitro cell culture growth assay (MTS), MDA-MB-361. The assay is classed as cell-based.
The target in another assay is PI3K-α (Homo sapiens, UniProt P42336). The assay is described as follows: PI3K-alpha fluorescence polarization assay. To be noted: read-out: IC50 PI3Kα.

Several values for one entry are separate records, joined by “and”; a condition that tells them apart may be missing. Identical values can stand only once. Like-named read-outs stand apart in the source and are kept apart here.

With `COc1nc(-c2ccc(NC(=O)Nc3ccc(C(=O)NCCN4CCCCC4)cc3)cc2)nc(N2CCOCC2)n1` [Example 248, 4-({[4-(4-methoxy-6-morpholin-4-yl-1,3,5-triazin-2-yl)phenyl]carbamoyl}amino)-N-(2-piperidin-1-ylethyl)benzamide], the IC50 against Human mTOR (FLAG-TOR) was 6.4 nM and 8.2 nM; at PI3K-γ it was 18 nM.
For “N-[2-(dimethylamino)ethyl]-4-({[4-(4-morpholin-4-yl-6-piperidin-1-yl-1,3,5-triazin-2-yl)phenyl]carbamoyl}amino)benzamide [Example 601]”, the IC50 in assay [1] (MTS cell growth assay, three days after drug treatment, MDA-MB-361 cells, read-out: IC50 MDA-MB-361) came to 22 nM.
Take `CNC(=O)c1ccc(NC(=O)Nc2ccc(-c3nc(N4CCOCC4)nc(N4CCOCC4)n3)cc2)cc1` [Example 70, 4-(3-(4-(4,6-dimorpholino-1,3,5-triazin-2-yl)phenyl)ureido)-N-methylbenzamide]: the 50% inhibitory concentration (IC50) on PI3K-α amounted to 2 nM; in assay [1] (Homo sapiens, MDA-MB-361, 72 h, read-out: IC50 MDA-MB-361, MTS cell growth assay, three days after drug treatment), 19 nM.

Usually IC50 stands for the concentration at which inhibition is half-maximal.
